The entries are a selection whose mix differs from that of the whole data set. Potency and affinity values are given separately. Calls of active or inactive are those of the source. How the calls were made is not given here.

This assay is described as follows: PhoP regulon inhibitors, Salmonella typhi PhoP promoter GFP reporter, confirmatory (AID 1850).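 Further: 0% = induced wells with vehicle and 100% = uninduced wells.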 The settings on record: fluorescence, 4 h, at 50 µM, active compounds read high.
Consider `O=C(NC(Sc1ccncn1)C(Cl)(Cl)Cl)c1ccccc1` (centres undefined), for which the inhibition (usually the relative decrease from the control value, in per cent) was inactive: 2.31%.

In the case of `Cc1c2non([O-])c-2c(C)[n+](=O)[n+]1[O-]`, the inhibition was inactive: 4.65%.

Regarding `Oc1ccccc1CNc1ccccn1`, the inhibition was inactive: -2.68%. Under `Nc1cc(N)c2nonc2c1[N+](=O)[O-]` stands inactive: -7.21%; under `CC(C)CC(=O)NC(Sc1ccc(Cl)cc1)C(Cl)(Cl)Cl` (centres undefined), inactive: -4.35%; under `CN1CCCC(OC(=O)C(c2ccccc2)c2ccccc2)C1` (centres undefined), inactive: 5.23%. Take `Clc1ccc(Cl)c(NC2=NCC(CBr)S2)c1` (centres undefined): the inhibition is inactive: 10.4%. For the compound `Cc1ccc(OP(=O)(Nc2nccs2)Oc2ccc(C)cc2)cc1`, the inhibition was inactive: -0.18%.

Regarding `COc1ccccc1OP(=O)(Nc1ccc(C)cn1)Oc1ccccc1OC`, the inhibition was inactive: 6.83%.

For `Cc1ccc(N/C(=N/P(=O)(N2CCOCC2)N2CCOCC2)N2CCOCC2)cc1`, the inhibition is inactive: 2.97%. The same measure for `CN(C(=O)Cc1ccc(Cl)c(Cl)c1)[C@H]1CCCC[C@H]1N1CCCC1`: inactive: -22.3%; for `NC(=O)c1cc([N+](=O)[O-])cc([N+](=O)[O-])c1N`: inactive: -27.4%; for `Nc1cccc2ccc([As](=O)(O)O)cc12`: inactive: -12.4%. Under `CCN(N=Nc1nonc1N)c1nonc1N` stands inactive: -6.72%; under `O=[N+]([O-])c1cc([N+](=O)[O-])c(CCN2CCOCC2)c([N+](=O)[O-])c1`, inactive: 10.7%; under `CN(C(=O)Cc1ccc(Cl)c(Cl)c1)[C@H]1CCCC[C@@H]1N1CCCC1`, inactive: -5.96%. Take `Cc1ccc(NP(=O)(Oc2ccccc2F)Oc2ccccc2F)nc1`: the inhibition is inactive: 1.61%.

On to `Cc1cc(SC(NC(=O)c2ccc(F)cc2)C(Cl)(Cl)Cl)ncn1` (centres undefined), for which the inhibition was inactive: -1.21%. Take `CCOP(=O)(Nc1ccccc1)OCC`: the inhibition was inactive: 11%.

In the case of `O=P(Nc1nc2ccc(Cl)cc2s1)(c1ccccc1)c1ccccc1`, the inhibition is inactive: -9.19%. Turning to `CC(=O)Nc1ccc([As](=O)(O)O)cc1`, the inhibition is inactive: -3.33%. Take `O=C(O)CNc1ccc([As](=O)(O)O)cc1`: the inhibition was inactive: 7.36%. Take `O=[N+]([O-])c1cccc(NC2=NCC(CBr)S2)c1` (centres undefined): the inhibition is inactive: -0.3%. In the case of `O=[N+]([O-])c1ncn(CCn2ncnc2[N+](=O)[O-])n1`, the inhibition is inactive: 3.03%.

In the case of `CC(C)(C)C(=O)NC(Sc1ccncn1)C(Cl)(Cl)Cl` (centres undefined), the inhibition was inactive: 10.9%. The same measure for `O=C(Nc1cc([As](=O)(O)O)ccc1O)c1ccccc1`: inactive: -13%; for `CC1CCN(C(=O)Oc2c(Cl)cc(Cl)c3cccnc23)CC1`: inactive: -3.62%. The same measure for `CN(C)C(=O)OCCc1n(C)cc[n+]1C`: inactive: -5.86%. Under `CC(C)=N/N=C(\N)N[N+](=O)[O-]` stands inactive: 3.58%.
